Measured values: patent US4756904A, “Method of imaging the heart using copper-64 citrate” (Oak Ridge Associated Universities, Inc., priority 1986, dated 1988)
Like-named read-outs stand apart in the source and are kept apart here.

Tests used:
plasma albumin = conditions: intravenous; cited from earlier work
[1] = dog, intravenous
Procedure: (§1) Sixteen closed-chest studies were performed in 6 healthy, adult mongrel dogs of both sexes weighing 15 to 30 kg. The dogs were maintained on a standard laboratory diet which was discontinued 24 hours prior to study. The animals were anesthetized using a combination of xylazine and sodium pentobarbital. Transmission cross-sectional scans of the chest area were performed on each dog with an ECAT II scanner using a ^68 Ge ring source with medium resolution filters and standard shadow shields. Measured attenuation coefficients were used for reconstructing the emission tomographs. […] Serial scans of the heart from base to apex in 10-15 mm steps were made starting 3-5 minutes after injection. After each series was completed, the ECAT II bed was returned to the original position and the dogs were rescanned. This procedure was repeated over a 2 to 4 hour period. Each set of scans required approximately 1 hour for 6 slices, so that 2 to 4 sets of images were obtained in each study. Sequential images were also obtained through a 20-mm section of the heart over a 2-hour period. Additional images from 1 dog were obtained using the new high-resolution ECAT III scanner. […] The animals were injected through a cannula or catheter in the leg and heparanized venous blood samples were removed from the opposite side. Known aliquots of whole blood, plasma, and erythrocytes were assayed in a well-type scintillation counter to determine the ^64 Cu levels present in the different components.

myocardium = conditions: dog
Procedure: as §1

## copper-64 citrate [^64 Cu citrate]
Heart tissue; 2 dogs sacrificed, 15-mm heart sections
  concentration of ^64 Cu in heart tissue: there was a concentration of the ^64 Cu in the heart tissue
Heart tissue; compared with values reported for ^201 Tl, ^52 Mn, ^81 Rb
  myocardial tissue concentration compared with ^201 Tl, ^52 Mn or ^81 Rb: not as high as those reported using ^201 Tl, ^52 Mn, or ^81 Rb
Plasma albumin
  binding in plasma: bound primarily to plasma albumin
[1]
  presence in blood: present in blood at low concentrations
[1]; after 1 hour
  total ^64 Cu in the blood: < 6%
[1]; within the first 30 minutes after injection
  total ^64 Cu in the blood: 10 % of the injected dose
myocardium; ECAT II and III scans
  ratios of heart to blood and other surrounding tissues: sufficiently high ratios of heart to blood and other surrounding tissues necessary for imaging
myocardium; scans and graphs
  retention of ^64 Cu: retained in the heart tissue rather than the blood
